From patent EP2914280B1, “SOMATOSTATIN-DOPAMINE CHIMERIC ANALOGS” (IPSEN PHARMA S.A.S., priority 2012, dated 2014)

Amino acid sequences for entries named in this document (tags omitted). A change or cut given only in a name is not applied to a line headed by its entry.
UniProt P30874: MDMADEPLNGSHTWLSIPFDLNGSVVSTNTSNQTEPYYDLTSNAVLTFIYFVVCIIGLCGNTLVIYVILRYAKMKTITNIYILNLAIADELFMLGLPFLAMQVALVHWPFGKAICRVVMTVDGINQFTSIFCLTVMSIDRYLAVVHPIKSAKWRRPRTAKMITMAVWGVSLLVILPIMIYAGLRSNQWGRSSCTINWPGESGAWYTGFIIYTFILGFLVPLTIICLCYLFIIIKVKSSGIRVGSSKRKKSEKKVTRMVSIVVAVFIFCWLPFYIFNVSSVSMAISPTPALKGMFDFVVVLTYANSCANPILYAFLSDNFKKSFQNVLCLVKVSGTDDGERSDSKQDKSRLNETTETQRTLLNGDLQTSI

Molecular target: T1, hSSTR2 (Homo sapiens, UniProt P30874)
T1 construct: host or cells: 'Cells expressing hSSTR2'
Experiment: Intracellular calcium mobilization assay (FLIPR Calcium 4), hSSTR2;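 note: agonist activity measured in cells expressing hSSTR2, seeded in 384-well plates, loaded with Calcium 4 dye, read-out as rise in intracellular calcium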
Format: cell-based
Conditions: p value (Student's t-test, one-tailed) < 0.05; receptor not named

| Substance | improvement in EC50 over Reference Compound A |
| --- | --- |
| Dop1-psi(CH2NH)-cyclo(DLys-Arg-Phe-4Pal-DTrp-Lys-Thr-Tyr) [Compound 7] | statistically significant improvement in EC50 |
| Dop1-psi(CH2NH)-cyclo(DLys-Arg-Phe-Phe-DTrp-Lys-Thr-4FPhe) [Compound 6] | statistically significant improvement in EC50 |
